Test results from PMC10128061, “Targeting Sterylglucosidase A to Treat Aspergillus fumigatus Infections” (mBio, 2023).

tested on: human lung epithelial cancer cell line A549; settings: A549 cells, 24 h, MTT

Point of comparison: `Cc1cc2c(N3CCCC(c4nccn4CC4CCC4)C3)ncnc2s1` (centres unmarked), LD50 87.1 µM. Against it:
- CC(C)Nc1ccnc(NCc2cccnc2Oc2ccc(F)cc2F)n1 — 4.4-fold lower, 19.6 µM
- CCNc1ccnc(NCc2cccnc2Oc2ccc(F)cc2F)n1 — 3.9-fold lower, 22.4 µM
- COc1cccc(-n2cc(CN(C)Cc3ccc(O)c(Cl)c3)cn2)c1 — 1.9-fold lower, 44.7 µM
- CCc1[nH]c2ccc(CNCc3cc(OC)c4c(c3)OCO4)cc2c1C — 2.8-fold lower, 31.5 µM
- CNc1cc(C)nc(NCc2ccc3[nH]c(C)c(C)c3c2)n1 — within 1.5-fold, 75.7 µM
- CCc1[nH]c2ccc(CNc3nccc(N4CCCC(O)C4)n3)cc2c1C (centres unmarked) — within 1.5-fold, 89.7 µM
- Cc1[nH]c2ccc(CNc3nccc(N)n3)cc2c1C — 2.1-fold higher, 181.3 µM
